Test results published in patent publication US7737182B2, “Pharmaceuticals for xerosis” (Taisho Pharmaceutical Co., Ltd., priority 2001, dated 2010).

The chains behind the UniProt entries cited, without tags or fusion partners.
UniProt P21731, whole entry: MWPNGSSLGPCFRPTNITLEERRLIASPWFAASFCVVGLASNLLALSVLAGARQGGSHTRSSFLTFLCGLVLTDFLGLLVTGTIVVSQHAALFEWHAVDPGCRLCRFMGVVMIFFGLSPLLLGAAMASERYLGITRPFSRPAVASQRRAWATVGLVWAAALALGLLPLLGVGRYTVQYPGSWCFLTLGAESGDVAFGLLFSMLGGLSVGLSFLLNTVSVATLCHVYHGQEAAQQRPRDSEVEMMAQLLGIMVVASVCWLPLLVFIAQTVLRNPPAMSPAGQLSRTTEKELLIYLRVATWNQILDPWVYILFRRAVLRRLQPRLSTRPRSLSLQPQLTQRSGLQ

Target: thromboxane (TP) receptor (Homo sapiens, UniProt P21731)
Assay: Human TP antagonistic action: [3H]SQ29548 binding to human washed platelets
Conditions: read-out: IC50, [3H]SQ29548 binding
Method: (C) The effect of the active ingredient of the present invention (compound No. 7) on a thromboxane (TP) receptor was measured as compared with the thromboxane agonist U44069 as a positive control drug.
The antagonistic action of the test drug on the [^3H]SQ29548 binding to human washed platelets was investigated on the basis of a documented method (J. Pharmacol. Exp. Ther., vol. 245, pp. 786-792, 1988).

## CCCCC[C@H](O)/C=C/[C@H]1[C@@H]2CO[C@@H](C2)[C@@H]1C/C=C\CCCC(=O)O
  IC50: 2400 nM
